## AlphaSeq binding of Ab-14 light chain variants to a spike HR2 peptide

All variants were tested on one target, the spike HR2 peptide PDVDLGDISGINAS (SARS-CoV-2).

Ab-14 is the parent antibody, in scFv form: VH, then a (GGGGS)3 linker, then VL. The heavy chain is unchanged in all variants.
VH: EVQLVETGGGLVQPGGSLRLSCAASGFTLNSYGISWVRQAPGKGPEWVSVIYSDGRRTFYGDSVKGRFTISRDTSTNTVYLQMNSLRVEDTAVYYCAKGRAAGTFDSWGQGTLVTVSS
VL: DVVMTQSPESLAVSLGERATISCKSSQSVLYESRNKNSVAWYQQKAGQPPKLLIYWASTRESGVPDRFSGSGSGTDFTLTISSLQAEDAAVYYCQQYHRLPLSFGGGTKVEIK

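The starting antibody came from a phage panning campaign against this peptide. The variants were designed computationally from a first round of random CDR variants and then made and measured. Group labels follow the data file (Ctrl: baseline library sampled from a position-specific scoring matrix, with some repeated check sequences; Rand: our label for a block that the file lists under HC and that is probably the random mutants of the ten best first-round binders; GP: Gaussian process model; GPLM: also part of the Gaussian process libraries; HC: hill climbing; Gen: genetic algorithm; Gibbs: Gibbs sampling; a sequence that several methods proposed may carry one label only). The assay is AlphaSeq: two haploid yeast populations carry antibody and antigen on their surface. Mating (16 h, 30 °C) was followed by selection of diploids and sequencing of their barcodes. The ratio of observed to expected reads was calibrated, replicate by replicate, on BCL2-family standards whose Kd was known from biolayer interferometry. There are six technical replicates.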

Changes read parent residue, position, new residue, counted from the first residue of the VL shown.
Variants here have at most six changes.
Affinities are written as log10 Kd with Kd in nM; a lower number is a better binder.
The mean shown is taken over the replicates in which the pair was detected.
Where no diploid with the target was found in any replicate, the entry reads "no signal": below detection, most likely a poor binder, though not proof of it.
The range of this assay differs from that of the first round, and the authors advise against merging the two.
The authors averaged sequences with at least three values out of six and counted those with two or fewer as poor binders.
Empty control strains, which show no peptide, gave a signal in 4% of pairings with all light chain designs; the median was 2.64 and 95% of these signals were weaker than 1.59. No background was subtracted. For each scFv, signals with the empty controls are counted beside the result.
Where one sequence has several entries in the source, the replicates are pooled.

For S25L S26Q V29Q W56N T59K [GP_Gen], the assay gave 0.51 (6 of 6 replicates; controls 1 of 18). For S25Q V29I W56D [GPLM_HC], the assay gave -0.14 (6 of 6 replicates; controls 1 of 18). For V29L T59D [Ctrl], the assay gave 2.08 (6 of 6 replicates; controls 0 of 18). The variant S28A L30P [Ctrl] showed 2.36 (6 of 6 replicates; controls 0 of 18). The variant L30G Y31V S62T [Ctrl] gave 1.57 (6 of 6 replicates; controls 0 of 18). With S25I V29N V39I W56N S58N [GP_Gibbs] the result was -0.24 (6 of 6 replicates; controls 0 of 18). The variant K24H S25L S26E W56N [GP_Gen] showed -0.35 (6 of 6 replicates; controls 0 of 18). For R34F [Ctrl], the assay gave 1.85 (6 of 6 replicates; controls 0 of 18). The variant S25L R34N K36S [Ctrl] gave 2.21 (6 of 6 replicates; controls 2 of 18).

The variant Y31I W56D [GP_HC] showed -0.11 (6 of 6 replicates; controls 0 of 18). For K24F S25L V29W W56N E61L [GP_Gen], the assay gave 0.42 (6 of 6 replicates; controls 0 of 18). The variant S25R S28T W56M [Ctrl] gave 1.72 (6 of 6 replicates; controls 1 of 18). With S25L S28M V29E W56N [GP_Gen] the result was -0.18 (6 of 6 replicates; controls 2 of 18). The variant S28H V29D L30S W56D [Ctrl] showed -0.26 (6 of 6 replicates; controls 0 of 18). For S25L S26R Q27M V29T S62E [GP_HC], the assay gave 0.44 (6 of 6 replicates; controls 0 of 18). With K24I S25L V29Q W56N [GP_Gen] the result was -0.21 (6 of 6 replicates; controls 1 of 18). The variant S25Q Y31M W56D [GP_Gen] gave -0.10 (6 of 6 replicates; controls 1 of 18). With K36C W56N T59C S103N [Ctrl] the result was 1.48 (3 of 6 replicates; controls 0 of 18).

With S26L V29E W56H S62D [GP_HC] the result was -0.04 (6 of 6 replicates; controls 0 of 18). The variant S28Q V29W R34L S38I Q96T P101S [Ctrl] showed no signal (0 of 6 replicates; controls 0 of 18). The variant S25L S26E V29W W56N T59Q Q96D [GP_Gen] gave 0.05 (6 of 6 replicates; controls 1 of 18). The variant K24H Q27P W56N T59G [Rand] showed 0.98 (6 of 6 replicates; controls 0 of 18). For S25Q V29N Y31C W56D [GP_HC], the assay gave 0.50 (6 of 6 replicates; controls 3 of 18). For S25L S26P V29F W56Q [GP_Gen], the assay gave 0.41 (6 of 6 replicates; controls 0 of 18). The variant S25L R34E [Ctrl] showed 0.74 (30 of 30 replicates; controls 5 of 90). The variant L30F W56S S62R [Ctrl] gave 1.30 (6 of 6 replicates; controls 3 of 18). For S25L S26P Q27N V29T N35M [GP_HC], the assay gave 0.70 (6 of 6 replicates; controls 1 of 18).

With S25L W56E Q96D [GP_Gen] the result was 0.01 (6 of 6 replicates; controls 1 of 18). The variant V29W W56G T59I [GPLM_HC] showed -0.34 (6 of 6 replicates; controls 2 of 18). For R34L Q95E R99G L102W [Ctrl], the assay gave no signal (0 of 6 replicates; controls 2 of 18). For S25L W56G S58H [GP_Gen], the assay gave -0.31 (6 of 6 replicates; controls 2 of 18). With S26L S38F W56H R60L S62D R99C [Rand] the result was no signal (0 of 6 replicates; controls 0 of 18). For Q27E V29G N35M W56E [GP_HC], the assay gave -0.09 (6 of 6 replicates; controls 1 of 18). The variant Q27Y V29Y K36E W56E S62Q [GP_HC] showed 0.98 (4 of 6 replicates; controls 0 of 18). The variant S25V R34G N35T W56N T59R [GP_HC] showed 0.46 (6 of 6 replicates; controls 2 of 18). The variant Q27I V29Y R34M W56N [GP_HC] gave -0.04 (6 of 6 replicates; controls 0 of 18).

With S25F W56N S62E [GP_Gen] the result was -0.40 (6 of 6 replicates; controls 1 of 18).

Values reported by Li et al. 2023, doi:10.1038/s41467-023-39022-2 (FLAb copy).